# Target: T1, recombinant HDAC8 (Homo sapiens, UniProt Q9BY41)
# T1 construct: purchased BPS Bioscience Inc
# T1 sequence (Q9BY41 1-377): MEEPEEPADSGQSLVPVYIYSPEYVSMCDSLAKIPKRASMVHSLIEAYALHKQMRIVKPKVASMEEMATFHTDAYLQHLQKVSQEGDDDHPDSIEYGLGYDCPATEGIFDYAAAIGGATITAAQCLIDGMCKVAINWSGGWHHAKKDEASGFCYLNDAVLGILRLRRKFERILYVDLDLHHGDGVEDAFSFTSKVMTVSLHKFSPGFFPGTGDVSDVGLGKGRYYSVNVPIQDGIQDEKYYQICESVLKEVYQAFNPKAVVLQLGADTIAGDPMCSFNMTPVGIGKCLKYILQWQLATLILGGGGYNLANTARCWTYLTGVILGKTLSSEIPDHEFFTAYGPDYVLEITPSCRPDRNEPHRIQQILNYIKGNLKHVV
# Assay: HDAC inhibitor enzymatic assay (BPS Bioscience), HDAC8
# Assay type: biochemical
# Details: 37 °C for 30 min; read-out: IC50 against HDAC8
substance,measurement,value
TSA,IC50,1300 nM

# From PMC10526199 (Biomolecules, 2023)
